US20260115250A1 (CHARACTER BIOSCIENCES, published 2026)

Target: T1, Low Density Lipoprotein Receptor (LDLR), recombinant (UniProt P01130 22-788, limits assumed)
T1 construct: also called Recombinant LDLR
Experiment: SPR multi-cycle kinetics, immobilized LDLR, high surfactant preparation (HBS-P+), 1:1 model
Description: The table shown in FIG. 23 illustrates LDLR binding data (SPR), using a high surfactant preparation. Recombinant LDLR was diluted in 10 mM acetate buffer pH 4.5 and amine coupled to a CM5 chip at 1000 RU. Peptides were diluted to 5 μM in running buffer (HBS-P+, 1 mM CaCl2) and serially diluted 1:3 for 5 total concentrations. […] Between cycles, the chip surface was regenerated with 3 injections of 50 mM NaOH/100 mM EDTA. Multi-Cycle Kinetics was performed on a Biacore Insight Evaluation Software and binding kinetics were analyzed with a 1:1 binding model.

| Kd [µM] | Binder |
| --- | --- |
| < 10 | T-117 (peptide) peptide: RSGADALESALKELKRFIREWTLGQSTEELRVRLASHLRKLRKRLLRDADDLQKRLAVYQA |
| < 10 | T-118 (peptide) peptide: LVARLLKELTAAMARLGRDAEDIRGNLFQYFDEVWAMLGQSTEELRVRLASHLRKLRKRLLRDADDLQKRLAVYQA |
